Columns and labels:
[1] = system: Hepatitis B virus; experiment: Antiviral activity against Hepatitis B virus infected human HepG2(2.2.15) cells assessed as inhibition of viral DNA replication after 9 days by RT-PCR analysis; format: functional, organism-based
[2] = system: Hepatitis B virus; experiment: Antiviral activity against Hepatitis B virus infected human HepG2(2.2.15) cells assessed as viral DNA level after 9 days by southern blot analysis; format: functional, organism-based

## CSc1ccc(Sc2nc(N)nc3c2ncn3CCOCP(=O)(OCC(F)(F)F)OCC(F)(F)F)cc1
[1]
  inhibition: Dose-dependent effect
[2]
  Activity: Dose-dependent effect

## CC(Cn1cnc2c(Sc3ccc4c(c3)CCO4)nc(N)nc21)OCP(=O)(OCC(F)(F)F)OCC(F)(F)F (stereo not drawn)
[1]
  inhibition: Dose-dependent effect
[2]
  Activity: Dose-dependent effect

## COc1ccc(Sc2nc(N)nc3c2ncn3CCOCP(=O)(OCC(F)(F)F)OCC(F)(F)F)cc1F
[1]
  inhibition: Dose-dependent effect
[2]
  Activity: Dose-dependent effect

## CC(C)(C)C(=O)OCOP(=O)(COCCn1cnc2c(N)ncnc21)OCOC(=O)C(C)(C)C [ADEFOVIR DIPIVOXIL]
[1]
  inhibition: Dose-dependent effect
[2]
  Activity: Dose-dependent effect

— ChEMBL document CHEMBL3046955, “Antiviral effects of three novel derivatives of adefovir on the replication of hepatitis B virus” (Med Chem Res, 2012)
